Assay results: PMC3261848

Amino acid sequences for entries named in this document (tags omitted). Residues count along the entry.
UniProt Q7WT50, 1-301 limits assumed: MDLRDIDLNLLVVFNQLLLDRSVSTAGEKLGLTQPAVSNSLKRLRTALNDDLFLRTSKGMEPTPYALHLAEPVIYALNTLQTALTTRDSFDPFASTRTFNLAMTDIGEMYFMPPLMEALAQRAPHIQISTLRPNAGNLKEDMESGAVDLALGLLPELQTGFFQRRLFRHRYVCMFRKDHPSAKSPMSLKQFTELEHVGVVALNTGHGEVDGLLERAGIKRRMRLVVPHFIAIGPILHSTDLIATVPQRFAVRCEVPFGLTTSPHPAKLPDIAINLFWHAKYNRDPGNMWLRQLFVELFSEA

Molecular target: DntR (Burkholderia sp. DNT, UniProt Q7WT50)
Test: gfp reporter induction in E. coli, flow cytometry
Settings: 500 µM; inducer; M9 medium; 30 °C

In the case of `Cc1ccc([N+](=O)[O-])cc1[N+](=O)[O-]`, the DNT is reported as 1.2±0.1 fold.

Some compounds may have been tested in ways that are not shown here.
